## Yeast mating assay 1: variants of the scFv Ab-14

Data: MIT Lincoln Laboratory AlphaSeq set, Engelhart et al. 2022, doi:10.1038/s41597-022-01779-4, as distributed in FLAb.

The target is the same throughout: PDVDLGDISGINAS, from the HR2 region of SARS-CoV-2 spike.

The variants keep the heavy chain, the linker and the frameworks of Ab-14 (scFv order VH, three GGGGS repeats, VL).
VH: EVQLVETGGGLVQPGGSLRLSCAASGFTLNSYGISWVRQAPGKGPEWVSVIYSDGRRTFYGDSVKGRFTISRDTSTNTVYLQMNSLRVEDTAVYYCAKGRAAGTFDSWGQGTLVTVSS
VL: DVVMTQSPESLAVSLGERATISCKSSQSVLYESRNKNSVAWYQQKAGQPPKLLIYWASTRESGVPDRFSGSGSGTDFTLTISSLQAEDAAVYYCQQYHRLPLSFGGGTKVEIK

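The library (AAYL50) carries one to three amino acid substitutions per variant, with no insertions or deletions. In AlphaSeq, yeast of one mating type display the scFv and yeast of the other type display the target. Mating (16 h, 30 °C) was followed by selection of diploids and sequencing of their barcodes. Each replicate has its own calibration line, from reference interactions of the BCL2 family. Mating was done three times.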

Variants are written as CDR1, CDR2 and CDR3 of the light chain (limits as in the source). Parent: KSSQSVLYESRNKNSVA, WASTRES, QQYHRLPLS. This list gathers variants with a substitution at Y31 (VL, numbered from residue 1). Each Kd is an estimate from the mating assay, the geometric mean of the replicates in which the pair was seen; lower is stronger. "nd" means that the variant was in the library but no mating with the target was seen in any replicate; the authors take this as a sign of poor binding, and no number exists. For reference, the parent read 4.4 nM as the reference entry and 48 nM as a member of this library. Nonspecific signal, from three strains lacking the peptide, appeared in 18% of pairings of library AAYL50, centred on 15 µM (5% of these signals below 970 nM); values are not corrected for it. The control count says in how many pairings with the empty strains this scFv gave a signal.

For KSSQSVSSESRNKNSVA / WASTREH / QQYHRLPLS, the assay gave 9.2 nM (3 of 3 replicates; controls 2 of 9). Variant KSSQSVLSESRNSNSVA / WASTRES / QQYHHLPLS gave 2.8 nM (3 of 3 replicates; controls 3 of 9). Variant KSSQSVLMEHRNKNSVA / WASTRES / QQYHRVPLS gave 65 nM (3 of 3 replicates; controls 2 of 9). For KSSQSVLCESRNKNSVA / WASTRES / RDYHRLPLS, the assay gave nd (0 of 3 replicates; controls 1 of 9). For KSSQSVLTESRNMNSVA / WTSTRES / QQYHRLPLS, the assay gave 17 nM (3 of 3 replicates; controls 2 of 9). For KSSQSVLLEYRNKNSVA / WASTRES / QQYHRLELS, the assay gave 82 nM (3 of 3 replicates; controls 4 of 9).

For KSSQSVLDESRNKNSVA / WASTRES / ATYHRLPLS, the assay gave 2.7 nM (3 of 3 replicates; controls 1 of 9). With KSSQSVLCESRNKNSVA / WASTRES / QQDHRLPLS the result was 3.7 µM (1 of 3 replicates; controls 3 of 9). Variant KSSFSVLAETRNKNSVA / WASTRES / QQYHRLPLS gave 59 µM (2 of 3 replicates; controls 1 of 9). Variant KSWQSVLPESRNKNSVA / WASTRES / QFYHRLPLS showed 130 nM (3 of 3 replicates; controls 2 of 9). With KSSQSVLQESRNKNGVA / WASTRES / QQYHRLRLS the result was nd (0 of 3 replicates; controls 1 of 9). Variant KSSQSVLAESFNKNSVA / WASTRYS / QQYHRLPLS showed 1.5 nM (3 of 3 replicates; controls 6 of 9).

With KSSQSVLHESRNKNSVA / WAETRES / QQYHRDPLS the result was 210 µM (2 of 3 replicates; controls 5 of 9). With KSSQSVLLESRVKNSVA / WASTRES / DQYHRLPLS the result was nd (0 of 3 replicates; controls 0 of 9). Variant KSSQSVLDECRNKMSVA / WASTRES / QQYHRLPLS gave 47 nM (3 of 3 replicates; controls 2 of 9). For KSSQSVLPESNNKNSVA / WASTRES / QQYHRLPLT, the assay gave 2.9 nM (3 of 3 replicates; controls 1 of 9). With KSSQSVLTESRNKNSVA / WASTRQS / QQYHRLHLS the result was nd (0 of 3 replicates; controls 1 of 9). For KSSQSVLNEQRNKNSVA / WASTRES / QQMHRLPLS, the assay gave 570 nM (3 of 3 replicates; controls 0 of 9).

Variant KSSTSVLHESRNKNSVA / WASTRES / QQYHRMPLS showed 20 nM (3 of 3 replicates; controls 3 of 9). Variant KSSQSVLVESPNKNSVA / WASTRES / QKYHRLPLS showed nd (0 of 3 replicates; controls 1 of 9). With KSSQSVRQESRNKNSVA / WASTRES / QQYHRLPLS the result was 40 nM (3 of 3 replicates; controls 7 of 9). Variant KSSQSVLFESRNKNHVA / WASTRAS / QQYHRLPLS showed nd (0 of 3 replicates; controls 1 of 9). With KSSQSVLPESRNKNSVA / WASTRES / QQYVRLPFS the result was 19 nM (3 of 3 replicates; controls 1 of 9). With KSSQSVLSESRNKNSVA / QASTRES / QYYHRLPLS the result was 160 nM (3 of 3 replicates; controls 0 of 9).

Variant KSSQSVLCESRNKNSVA / WASMREF / QQYHRLPLS gave nd (0 of 3 replicates; controls 0 of 9). Variant KSSQSVLFESRNKNSVA / HWSTRES / QQYHRLPLS showed nd (0 of 3 replicates; controls 0 of 9). With KSSQSVLTESRNKNPVA / WTSTRES / QQYHRLPLS the result was 4.7 nM (3 of 3 replicates; controls 0 of 9). Variant KQSQSVLPESRNKNSVA / WASTRES / QQYHRLPCS showed 6.4 nM (3 of 3 replicates; controls 6 of 9). With PSSQSVLWESRNKNSVA / WASTRES / QQYHRLPLS the result was nd (0 of 3 replicates; controls 0 of 9). For KSSQSVLKESRNKNSVA / WASTRES / QRYIRLPLS, the assay gave 93 µM (1 of 3 replicates; controls 2 of 9).

Variant KSSQSVLDESRNKNSVA / WASTRKS / QQYHRLPLS gave 80 nM (3 of 3 replicates; controls 3 of 9). With PSSQSVLMESRNKNSVA / WASTRES / QQYHRLPLS the result was 2.6 µM (1 of 3 replicates; controls 4 of 9). Variant KSSQSVLPESRNSNSVA / WASTRES / QQYHRLPLS gave 4.8 nM (3 of 3 replicates; controls 3 of 9). Variant KSSQSVLQESRNKNSVG / WASTRGS / QQYHRLPLS gave 1.2 µM (1 of 3 replicates; controls 0 of 9). For KSSQSVLVESRNKNSVA / WASTREP / QQYHRLPLK, the assay gave 63 nM (3 of 3 replicates; controls 0 of 9). For KSSQSVLSESRNKNSMA / WASTRES / QQYHRLPLS, the assay gave 14 nM (3 of 3 replicates; controls 2 of 9).

For KSSQSVLFESRNKNRVA / WDSTRES / QQYHRLPLS, the assay gave 81 nM (2 of 3 replicates; controls 2 of 9). For KSSQSVLEESRNKNSVY / WASTRES / DQYHRLPLS, the assay gave 490 µM (2 of 3 replicates; controls 8 of 9). Variant KSSPSVLGESRNKNHVA / WASTRES / QQYHRLPLS showed 4.8 nM (3 of 3 replicates; controls 0 of 9). Variant KSSQSVLSESRNKNSVA / WASRRES / QQYHRLPLS gave 24 nM (3 of 3 replicates; controls 1 of 9). Variant KSDQSVLHESRNRNSVA / WASTRES / QQYHRLPLS gave 7.5 nM (3 of 3 replicates; controls 0 of 9). For KFSQSVLSESRNKNSVA / WASTRES / QQTHRLPLS, the assay gave 520 µM (1 of 3 replicates; controls 0 of 9).

Variant KSSQSVMMESRNKQSVA / WASTRES / QQYHRLPLS showed 21 nM (3 of 3 replicates; controls 0 of 9). Variant KSSQSVLQEMRNKNAVA / WASTRES / QQYHRLPLS gave 4.9 nM (3 of 3 replicates; controls 2 of 9). With KSSQSVLGESRNKNSVA / WASTRES / QQYHRLPGS the result was nd (0 of 3 replicates; controls 0 of 9). Variant KSTQSVLGESRNKNSVA / WASTRES / QQSHRLPLS showed 310 nM (3 of 3 replicates; controls 3 of 9). With KSSQSVLWESRNKNSLA / WASTREW / QQYHRLPLS the result was 130 nM (3 of 3 replicates; controls 5 of 9). With KSSQSVLCESRNKNSVA / WASTREN / QQYHKLPLS the result was 770 nM (1 of 3 replicates; controls 0 of 9).

Picked from the list: the 3 lowest averages where every replicate gave a value.

{"CDR-L1": "KSSQSVLAESFNKNSVA", "CDR-L2": "WASTRYS", "CDR-L3": "QQYHRLPLS", "apparent Kd": "1.5 nM", "seen in": "3 of 3", "control signals": "6 of 9"}
{"CDR-L1": "KSSQSVLDESRNKNSVA", "CDR-L2": "WASTRES", "CDR-L3": "ATYHRLPLS", "apparent Kd": "2.7 nM", "seen in": "3 of 3", "control signals": "1 of 9"}
{"CDR-L1": "KSSQSVLSESRNSNSVA", "CDR-L2": "WASTRES", "CDR-L3": "QQYHHLPLS", "apparent Kd": "2.8 nM", "seen in": "3 of 3", "control signals": "3 of 9"}